In patent US10357572B2, “Prodrugs activated by caspase” (priority 2014, dated 2019):

Columns and labels:
SCC7 = conditions: up to 100 μM, absence of caspase-3
MDA-MB-231 = conditions: up to 100 μM, absence of caspase-3

Substance: HSA-maleimide-KGDEVD-PABC-doxorubicin
- cytotoxic effect (MTT assay) (SCC7): did not show any noticeable cytotoxic effect
- cytotoxic effect (MTT assay) (MDA-MB-231): did not show any noticeable cytotoxic effect
